# Columns and labels:
# The chains behind the UniProt entries cited, without tags or fusion partners. Residues count along the entry.
# UniProt P11362, 22-822 limits assumed: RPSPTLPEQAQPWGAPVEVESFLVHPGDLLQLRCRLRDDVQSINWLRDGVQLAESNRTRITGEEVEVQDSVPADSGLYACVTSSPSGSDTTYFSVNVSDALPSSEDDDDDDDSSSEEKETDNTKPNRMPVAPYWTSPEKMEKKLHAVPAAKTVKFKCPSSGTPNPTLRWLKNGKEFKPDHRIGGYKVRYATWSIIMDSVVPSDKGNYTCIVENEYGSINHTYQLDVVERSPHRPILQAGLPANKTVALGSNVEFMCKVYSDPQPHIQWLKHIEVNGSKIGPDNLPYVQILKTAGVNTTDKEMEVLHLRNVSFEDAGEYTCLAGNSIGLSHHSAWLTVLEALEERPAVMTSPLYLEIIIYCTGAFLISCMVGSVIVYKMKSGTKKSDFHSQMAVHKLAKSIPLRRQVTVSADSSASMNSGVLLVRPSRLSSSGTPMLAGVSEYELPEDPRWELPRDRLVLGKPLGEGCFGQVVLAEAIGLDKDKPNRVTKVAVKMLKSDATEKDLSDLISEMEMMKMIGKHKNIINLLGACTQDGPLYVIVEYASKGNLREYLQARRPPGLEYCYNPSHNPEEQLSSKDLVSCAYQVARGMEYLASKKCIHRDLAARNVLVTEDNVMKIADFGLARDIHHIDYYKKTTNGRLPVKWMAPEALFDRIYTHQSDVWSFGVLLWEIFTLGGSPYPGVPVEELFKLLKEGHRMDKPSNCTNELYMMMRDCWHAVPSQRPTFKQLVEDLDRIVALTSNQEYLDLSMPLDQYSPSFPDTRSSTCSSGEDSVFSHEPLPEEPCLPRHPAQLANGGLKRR
# UniProt P54753, 34-998 limits assumed: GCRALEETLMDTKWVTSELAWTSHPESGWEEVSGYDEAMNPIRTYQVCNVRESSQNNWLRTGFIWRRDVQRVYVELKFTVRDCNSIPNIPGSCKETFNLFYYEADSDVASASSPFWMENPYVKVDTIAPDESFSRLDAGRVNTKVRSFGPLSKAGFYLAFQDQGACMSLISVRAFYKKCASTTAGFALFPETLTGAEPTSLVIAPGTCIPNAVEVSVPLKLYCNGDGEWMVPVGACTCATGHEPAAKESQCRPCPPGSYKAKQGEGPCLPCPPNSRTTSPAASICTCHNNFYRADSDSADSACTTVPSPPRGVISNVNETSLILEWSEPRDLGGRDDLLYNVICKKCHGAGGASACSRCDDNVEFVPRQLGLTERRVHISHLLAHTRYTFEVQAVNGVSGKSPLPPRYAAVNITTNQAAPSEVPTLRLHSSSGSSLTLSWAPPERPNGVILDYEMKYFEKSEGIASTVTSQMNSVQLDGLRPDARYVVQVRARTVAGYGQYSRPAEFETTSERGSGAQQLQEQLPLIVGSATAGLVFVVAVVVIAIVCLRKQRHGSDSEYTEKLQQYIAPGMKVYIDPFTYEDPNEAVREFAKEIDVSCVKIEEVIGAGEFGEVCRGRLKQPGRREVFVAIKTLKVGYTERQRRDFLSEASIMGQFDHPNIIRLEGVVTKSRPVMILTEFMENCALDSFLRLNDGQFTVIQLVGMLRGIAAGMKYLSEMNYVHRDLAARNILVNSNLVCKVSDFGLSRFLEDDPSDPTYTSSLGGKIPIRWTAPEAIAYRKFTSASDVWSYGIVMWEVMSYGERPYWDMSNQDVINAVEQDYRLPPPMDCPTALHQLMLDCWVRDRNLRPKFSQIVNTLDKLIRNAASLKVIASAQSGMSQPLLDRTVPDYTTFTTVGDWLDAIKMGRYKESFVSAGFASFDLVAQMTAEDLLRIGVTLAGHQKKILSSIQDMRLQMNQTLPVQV
# UniProt P29320, 21-983 limits assumed: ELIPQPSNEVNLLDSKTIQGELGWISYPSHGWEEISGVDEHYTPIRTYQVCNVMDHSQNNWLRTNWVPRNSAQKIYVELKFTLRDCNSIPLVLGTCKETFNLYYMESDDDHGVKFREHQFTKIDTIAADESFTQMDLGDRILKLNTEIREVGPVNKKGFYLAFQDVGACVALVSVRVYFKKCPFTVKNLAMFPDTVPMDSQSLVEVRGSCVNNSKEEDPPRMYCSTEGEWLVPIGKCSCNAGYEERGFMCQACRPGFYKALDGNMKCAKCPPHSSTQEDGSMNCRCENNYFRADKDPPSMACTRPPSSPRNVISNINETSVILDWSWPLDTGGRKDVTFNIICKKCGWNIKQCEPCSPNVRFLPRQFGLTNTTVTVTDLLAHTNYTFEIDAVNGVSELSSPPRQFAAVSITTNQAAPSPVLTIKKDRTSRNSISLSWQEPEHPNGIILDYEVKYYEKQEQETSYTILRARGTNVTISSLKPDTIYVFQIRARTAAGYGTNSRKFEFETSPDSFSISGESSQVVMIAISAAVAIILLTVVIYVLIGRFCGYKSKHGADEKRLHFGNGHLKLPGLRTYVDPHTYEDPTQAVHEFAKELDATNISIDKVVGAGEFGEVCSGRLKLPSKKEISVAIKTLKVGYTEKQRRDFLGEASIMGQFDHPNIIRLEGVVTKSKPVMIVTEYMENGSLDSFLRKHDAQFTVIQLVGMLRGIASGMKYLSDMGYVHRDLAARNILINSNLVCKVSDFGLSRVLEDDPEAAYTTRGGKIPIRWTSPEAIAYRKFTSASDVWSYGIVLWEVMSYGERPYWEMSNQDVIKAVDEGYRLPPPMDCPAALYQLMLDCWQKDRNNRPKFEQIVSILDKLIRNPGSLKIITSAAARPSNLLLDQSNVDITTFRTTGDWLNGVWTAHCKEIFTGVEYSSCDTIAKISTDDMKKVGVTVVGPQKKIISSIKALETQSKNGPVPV
# UniProt P42336, whole entry: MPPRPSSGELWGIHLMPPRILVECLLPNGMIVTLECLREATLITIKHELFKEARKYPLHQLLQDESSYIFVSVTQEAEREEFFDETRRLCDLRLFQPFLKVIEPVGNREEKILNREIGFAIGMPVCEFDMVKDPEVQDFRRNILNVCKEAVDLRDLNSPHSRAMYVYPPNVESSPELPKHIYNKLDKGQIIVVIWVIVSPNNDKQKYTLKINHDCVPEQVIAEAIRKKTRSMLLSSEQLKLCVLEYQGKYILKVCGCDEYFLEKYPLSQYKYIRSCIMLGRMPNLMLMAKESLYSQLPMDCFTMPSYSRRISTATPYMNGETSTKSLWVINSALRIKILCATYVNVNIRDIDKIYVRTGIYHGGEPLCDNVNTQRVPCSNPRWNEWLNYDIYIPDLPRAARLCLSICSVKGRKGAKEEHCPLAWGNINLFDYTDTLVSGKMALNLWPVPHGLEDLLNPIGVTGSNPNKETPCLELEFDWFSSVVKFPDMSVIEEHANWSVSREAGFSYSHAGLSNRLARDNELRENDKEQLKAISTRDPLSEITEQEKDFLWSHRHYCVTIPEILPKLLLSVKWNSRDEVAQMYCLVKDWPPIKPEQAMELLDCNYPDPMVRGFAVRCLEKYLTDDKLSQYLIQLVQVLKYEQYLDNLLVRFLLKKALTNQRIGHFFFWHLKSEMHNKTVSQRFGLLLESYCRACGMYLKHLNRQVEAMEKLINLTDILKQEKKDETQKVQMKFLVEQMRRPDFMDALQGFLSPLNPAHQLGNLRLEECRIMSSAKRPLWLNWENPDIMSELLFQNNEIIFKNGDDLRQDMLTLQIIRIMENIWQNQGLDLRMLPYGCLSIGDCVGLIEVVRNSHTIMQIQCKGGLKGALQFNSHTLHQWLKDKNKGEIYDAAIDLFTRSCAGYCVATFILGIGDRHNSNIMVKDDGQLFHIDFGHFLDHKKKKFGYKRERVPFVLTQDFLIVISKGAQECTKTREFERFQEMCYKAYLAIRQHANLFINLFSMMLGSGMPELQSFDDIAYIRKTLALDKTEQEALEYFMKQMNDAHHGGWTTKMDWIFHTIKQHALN
# UniProt Q9UBF8, whole entry: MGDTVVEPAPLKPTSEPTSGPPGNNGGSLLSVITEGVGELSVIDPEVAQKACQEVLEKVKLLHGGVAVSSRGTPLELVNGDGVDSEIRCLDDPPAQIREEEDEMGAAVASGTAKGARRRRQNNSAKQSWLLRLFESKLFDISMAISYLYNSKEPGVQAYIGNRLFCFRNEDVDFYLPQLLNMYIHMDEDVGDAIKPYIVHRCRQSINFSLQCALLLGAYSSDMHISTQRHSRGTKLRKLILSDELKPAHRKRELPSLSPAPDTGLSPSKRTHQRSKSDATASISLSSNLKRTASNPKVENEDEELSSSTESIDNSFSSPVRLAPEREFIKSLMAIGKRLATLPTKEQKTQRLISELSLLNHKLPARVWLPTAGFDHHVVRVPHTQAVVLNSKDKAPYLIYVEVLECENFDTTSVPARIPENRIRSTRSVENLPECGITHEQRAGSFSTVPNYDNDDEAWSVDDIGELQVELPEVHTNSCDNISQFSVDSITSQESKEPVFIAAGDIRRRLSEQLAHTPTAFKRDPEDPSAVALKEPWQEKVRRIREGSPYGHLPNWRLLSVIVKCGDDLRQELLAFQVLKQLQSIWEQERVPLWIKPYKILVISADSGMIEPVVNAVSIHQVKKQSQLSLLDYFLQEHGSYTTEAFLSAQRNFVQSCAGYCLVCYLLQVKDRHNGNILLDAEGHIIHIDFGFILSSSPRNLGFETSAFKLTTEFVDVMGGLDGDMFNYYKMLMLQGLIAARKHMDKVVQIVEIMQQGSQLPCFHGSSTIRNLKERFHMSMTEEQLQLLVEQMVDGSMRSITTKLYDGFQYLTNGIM
# UniProt P42338, whole entry: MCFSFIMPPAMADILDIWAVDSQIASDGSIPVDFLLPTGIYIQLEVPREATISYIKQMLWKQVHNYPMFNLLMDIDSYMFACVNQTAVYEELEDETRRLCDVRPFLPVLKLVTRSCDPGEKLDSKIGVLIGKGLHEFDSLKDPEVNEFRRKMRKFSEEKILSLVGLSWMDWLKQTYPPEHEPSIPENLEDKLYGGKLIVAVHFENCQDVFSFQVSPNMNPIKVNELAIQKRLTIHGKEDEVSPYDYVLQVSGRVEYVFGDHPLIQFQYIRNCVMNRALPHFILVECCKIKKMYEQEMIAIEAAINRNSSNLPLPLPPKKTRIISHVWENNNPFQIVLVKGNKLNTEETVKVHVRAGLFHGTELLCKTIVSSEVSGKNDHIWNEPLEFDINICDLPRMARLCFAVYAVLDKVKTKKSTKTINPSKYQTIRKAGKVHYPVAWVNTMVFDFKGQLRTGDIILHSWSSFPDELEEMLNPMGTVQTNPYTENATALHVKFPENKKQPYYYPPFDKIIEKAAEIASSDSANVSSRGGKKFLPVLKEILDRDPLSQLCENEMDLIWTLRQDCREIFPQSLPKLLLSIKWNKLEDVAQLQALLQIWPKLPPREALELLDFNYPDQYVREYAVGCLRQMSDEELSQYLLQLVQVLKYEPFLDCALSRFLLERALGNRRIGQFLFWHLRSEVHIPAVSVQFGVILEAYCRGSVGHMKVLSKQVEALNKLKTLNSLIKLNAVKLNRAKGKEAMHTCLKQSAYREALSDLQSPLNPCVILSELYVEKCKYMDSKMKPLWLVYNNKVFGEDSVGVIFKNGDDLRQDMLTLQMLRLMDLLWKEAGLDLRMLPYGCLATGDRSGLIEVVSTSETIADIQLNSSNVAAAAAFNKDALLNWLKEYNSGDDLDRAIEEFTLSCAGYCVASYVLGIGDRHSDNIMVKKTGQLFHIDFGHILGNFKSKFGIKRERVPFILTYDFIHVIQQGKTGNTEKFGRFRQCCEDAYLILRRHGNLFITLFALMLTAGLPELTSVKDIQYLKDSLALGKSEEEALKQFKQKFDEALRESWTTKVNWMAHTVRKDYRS
# UniProt O14986, whole entry: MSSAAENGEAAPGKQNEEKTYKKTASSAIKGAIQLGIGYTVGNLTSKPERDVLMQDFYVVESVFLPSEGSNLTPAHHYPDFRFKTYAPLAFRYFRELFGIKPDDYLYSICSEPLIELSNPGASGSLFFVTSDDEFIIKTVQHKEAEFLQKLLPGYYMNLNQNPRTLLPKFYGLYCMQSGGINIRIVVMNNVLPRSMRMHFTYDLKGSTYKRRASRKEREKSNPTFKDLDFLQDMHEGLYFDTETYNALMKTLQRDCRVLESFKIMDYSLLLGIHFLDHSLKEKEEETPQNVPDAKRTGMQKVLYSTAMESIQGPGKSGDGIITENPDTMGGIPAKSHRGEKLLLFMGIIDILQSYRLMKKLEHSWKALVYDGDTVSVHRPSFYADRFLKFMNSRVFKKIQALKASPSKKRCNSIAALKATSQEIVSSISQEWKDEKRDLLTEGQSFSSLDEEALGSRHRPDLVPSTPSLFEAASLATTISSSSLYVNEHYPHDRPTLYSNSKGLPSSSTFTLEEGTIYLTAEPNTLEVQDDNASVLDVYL
# UniProt P50750, whole entry: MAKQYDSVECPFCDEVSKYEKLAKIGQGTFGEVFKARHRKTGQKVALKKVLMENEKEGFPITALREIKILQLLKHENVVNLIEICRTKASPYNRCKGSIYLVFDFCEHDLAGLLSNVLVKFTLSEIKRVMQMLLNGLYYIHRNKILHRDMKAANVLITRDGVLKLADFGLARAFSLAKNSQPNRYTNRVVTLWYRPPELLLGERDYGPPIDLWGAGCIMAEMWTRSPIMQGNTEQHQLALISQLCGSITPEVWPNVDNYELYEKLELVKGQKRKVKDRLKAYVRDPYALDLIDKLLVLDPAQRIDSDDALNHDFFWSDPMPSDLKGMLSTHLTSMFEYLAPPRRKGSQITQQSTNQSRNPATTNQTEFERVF
# FGFR1 = FGFR1 (Homo sapiens, UniProt P11362); assay: NanoBRET kinase panel (CELLinib); details: whole-cell NanoBRET
# KDR = KDR (Homo sapiens, UniProt P35968); assay: NanoBRET kinase panel (CELLinib); details: whole-cell NanoBRET
# EPHA2 = EPHA2 (Homo sapiens, UniProt P29317); assay: NanoBRET kinase panel (CELLinib); details: whole-cell NanoBRET
# EPHB3 = EPHB3 (Homo sapiens, UniProt P54753); assay: NanoBRET kinase panel (CELLinib); details: whole-cell NanoBRET
# EPHA1 = EPHA1 (Homo sapiens, UniProt P21709); assay: NanoBRET kinase panel (CELLinib); details: whole-cell NanoBRET
# SRC = SRC (Homo sapiens, UniProt P12931); assay: NanoBRET kinase panel (CELLinib); details: whole-cell NanoBRET
# PDPK1 = PDPK1 (Homo sapiens, UniProt O15530); assay: NanoBRET kinase panel (CELLinib); details: whole-cell NanoBRET
# EPHB1 = EPHB1 (Homo sapiens, UniProt P54762); assay: NanoBRET kinase panel (CELLinib); details: whole-cell NanoBRET
# ACVR1B = ACVR1B (Homo sapiens, UniProt P36896); assay: NanoBRET kinase panel (CELLinib); details: whole-cell NanoBRET
# EPHA8 = EPHA8 (Homo sapiens, UniProt P29322); assay: NanoBRET kinase panel (CELLinib); details: whole-cell NanoBRET
# EPHA3 = EPHA3 (Homo sapiens, UniProt P29320); assay: NanoBRET kinase panel (CELLinib); details: whole-cell NanoBRET
# KIT = KIT (Homo sapiens, UniProt P10721); assay: NanoBRET kinase panel (CELLinib); details: whole-cell NanoBRET
# EPHB4 = EPHB4 (Homo sapiens, UniProt P54760); assay: NanoBRET kinase panel (CELLinib); details: whole-cell NanoBRET
# PIK3CA = PIK3CA (Homo sapiens, UniProt P42336); assay: NanoBRET kinase panel (CELLinib); details: whole-cell NanoBRET
# EPHA5 = EPHA5 (Homo sapiens, UniProt P54756); assay: NanoBRET kinase panel (CELLinib); details: whole-cell NanoBRET
# TGFBR1 = TGFBR1 (Homo sapiens, UniProt P36897); assay: NanoBRET kinase panel (CELLinib); details: whole-cell NanoBRET
# SPHK1 = SPHK1 (Homo sapiens, UniProt Q9NYA1); assay: Kinase profiling, Adapta; details: 1 μM, KmATP
# GSG2 (Haspin) = GSG2 (Haspin) (Homo sapiens, UniProt Q8TF76); assay: Kinase profiling, Adapta; details: 1 μM, KmATP
# PIP5K1A = PIP5K1A (Homo sapiens, UniProt Q99755); assay: Kinase profiling, Adapta; details: 1 μM, KmATP
# PIK3C2G = PIK3C2G (Homo sapiens, UniProt O75747); assay: Kinase profiling, Adapta; details: 1 μM, KmATP
# PIK3CG (p110 gamma) = PIK3CG (p110 gamma) (Homo sapiens, UniProt P48736); assay: Kinase profiling, Adapta; details: 1 μM, KmATP
# NUAK1 (ARK5) = NUAK1 (ARK5) (Homo sapiens, UniProt O60285); assay: Kinase profiling, Adapta; details: 1 μM, KmATP
# LRRK2 Hu Phos = LRRK2 Hu Phos (Homo sapiens, UniProt Q5S007); assay: Kinase profiling, Adapta; details: 1 μM, KmATP
# PI4KA = PI4KA (Homo sapiens, UniProt P42356); assay: Kinase profiling, Adapta; details: 1 μM, KmATP
# PIK3CA/PIK3R1 = PIK3CA/PIK3R1 (Homo sapiens, UniProt P42336); assay: Kinase profiling, Adapta; details: 1 μM, KmATP
# DAPK1 = DAPK1 (Homo sapiens, UniProt P53355); assay: Kinase profiling, Adapta; details: 1 μM, KmATP
# PIK3CD/PIK3R1 = PIK3CD/PIK3R1 (Homo sapiens, UniProt O00329); assay: Kinase profiling, Adapta; details: 1 μM, KmATP
# PIP5K1C = PIP5K1C (Homo sapiens, UniProt O60331); assay: Kinase profiling, Adapta; details: 1 μM, KmATP
# PI4KB = PI4KB (Homo sapiens, UniProt Q9UBF8); assay: Kinase profiling, Adapta; details: 1 μM, KmATP
# CDK6 Cyclin D1 = CDK6 Cyclin D1 (Homo sapiens, UniProt Q00534); assay: Kinase profiling, Adapta; details: 1 μM, KmATP
# PIP4K2A = PIP4K2A (Homo sapiens, UniProt P48426); assay: Kinase profiling, Adapta; details: 1 μM, KmATP
# PIK3CB/PIK3R2 = PIK3CB/PIK3R2 (Homo sapiens, UniProt P42338); assay: Kinase profiling, Adapta; details: 1 μM, KmATP
# PIP5K 1B = PIP5K 1B (Homo sapiens, UniProt O14986); assay: Kinase profiling, Adapta; details: 1 μM, KmATP
# CDK9/cyclin T1 = CDK9/cyclin T1 (Homo sapiens, UniProt P50750); assay: Kinase profiling, Adapta; details: 1 μM, KmATP
# CDK7/cyclin H/MNAT1 = CDK7/cyclin H/MNAT1 (Homo sapiens, UniProt P50613); assay: Kinase profiling, Adapta; details: 1 μM, KmATP
# IRAK1 = IRAK1 (Homo sapiens, UniProt P51617); assay: Kinase profiling, Adapta; details: 1 μM, KmATP
# SPHK2 = SPHK2 (Homo sapiens, UniProt Q9NRA0); assay: Kinase profiling, Adapta; details: 1 μM, KmATP
# LRRK2 FL = LRRK2 FL (Homo sapiens, UniProt Q5S007); assay: Kinase profiling, Adapta; details: 1 μM, KmATP
# CAMK1 (CaMK1) = CAMK1 (CaMK1) (Homo sapiens, UniProt Q14012); assay: Kinase profiling, Adapta; details: 1 μM, KmATP
# PIK3C2A = PIK3C2A (Homo sapiens, UniProt O00443); assay: Kinase profiling, Adapta; details: 1 μM, KmATP
# PIK3CA/PIK3R3 = PIK3CA/PIK3R3 (Homo sapiens, UniProt P42336); assay: Kinase profiling, Adapta; details: 1 μM, KmATP
smiles,measurement,setting,value
"Cc1nc(C(F)(F)F)c2c(C(N)=O)c(N)n(-c3c(C)ccc(O)c3C)c2n1 (single isomer, unassigned)",IC50,FGFR1,> 50 µM
same,IC50,KDR,> 50 µM
same,IC50,EPHA2,6.83 µM
same,IC50,EPHB3,1.79 µM
same,IC50,EPHA1,3.17 µM
same,IC50,SRC,> 50 µM
same,IC50,PDPK1,> 50 µM
same,IC50,EPHB1,6.32 µM
same,IC50,ACVR1B,27.1 µM
same,IC50,EPHA8,33.4 µM
same,IC50,EPHA3,8.1 µM
same,IC50,KIT,4.29 µM
same,IC50,EPHB4,13.4 µM
same,IC50,PIK3CA,48.5 µM
same,IC50,EPHA5,15 µM
same,IC50,TGFBR1,> 50 µM
same,MEAN INHIBITION,SPHK1,−4.651%
same,MEAN INHIBITION,GSG2 (Haspin),6.522%
same,MEAN INHIBITION,PIP5K1A,−13.685%
same,MEAN INHIBITION,PIK3C2G,−1.050%
same,MEAN INHIBITION,PIK3CG (p110 gamma),−15.516%
same,MEAN INHIBITION,NUAK1 (ARK5),1.560%
same,MEAN INHIBITION,LRRK2 Hu Phos,−0.583%
same,MEAN INHIBITION,PI4KA,2.590%
same,MEAN INHIBITION,PIK3CA/PIK3R1,0.944%
same,MEAN INHIBITION,DAPK1,−1.914%
same,MEAN INHIBITION,PIK3CD/PIK3R1,−1.504%
same,MEAN INHIBITION,PIP5K1C,−4.695%
same,MEAN INHIBITION,PI4KB,5.927%
same,MEAN INHIBITION,CDK6 Cyclin D1,9.064%
same,MEAN INHIBITION,PIP4K2A,0.823%
same,MEAN INHIBITION,PIK3CB/PIK3R2,−1.195%
same,MEAN INHIBITION,PIP5K 1B,−11.784%
same,MEAN INHIBITION,CDK9/cyclin T1,16.235%
same,MEAN INHIBITION,CDK7/cyclin H/MNAT1,18.174%
same,MEAN INHIBITION,IRAK1,−2.983%
same,MEAN INHIBITION,SPHK2,−6.141%
same,MEAN INHIBITION,LRRK2 FL,−6.193%
same,MEAN INHIBITION,CAMK1 (CaMK1),11.522%
same,MEAN INHIBITION,PIK3C2A,−0.965%
same,MEAN INHIBITION,PIK3CA/PIK3R3,−2.464%

# Reference: patent publication US20260384438A1, “PYRROLOPYRIMIDINE CARBOXAMIDES” (published 2026)
